The results in this text go back to patent publication US9387209B2, “Histone deacetylases (HDACs) inhibitors” (ANNJI PHARMACEUTICAL CO., LTD., priority 2012, dated 2016).

Sequences of proteins named here, by UniProt entry; tags and fusion partners are left off. Residues count along the entry.
UniProt P05067, 672-711 limits assumed: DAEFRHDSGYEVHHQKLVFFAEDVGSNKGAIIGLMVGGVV

Test [1] addresses T1, zinc-mediated β-amyloid aggregation (Homo sapiens, UniProt P05067). As to the kind of experiment: Anti-amyloid aggregation assay, BCA. It counts as biochemical. As to the method: (§1) Anti-Amyloid Aggregation Assay.
(§2) The effects of compounds on inhibition of β-amyloid aggregation were assayed. The levels of β-amyloid aggregates were determined by thioflavin S, BCA or CR assays (Tables 1). Thioflavin S, and Congo red are for in vitro staining of aggregated β-amyloid. Bicinchoninic acid (BCA) assay determines the total protein level or concentration.

Test [2] has as its target T1, zinc-mediated β-amyloid aggregation. As to the kind of experiment: Anti-amyloid aggregation assay, thioflavin S. It counts as biochemical. As to the method: as §1, §2
For test [3] the target is unchanged. The test is described as follows: Anti-amyloid aggregation assay, CR (Congo red). Format: biochemical. Here is the method:
as §1, §2

Test [4] deals with hippocampus-lesioned mice. As to the kind of experiment: Rotarod test in Alzheimer disease model. Conditions: mouse, in vivo, ip, 10 mg/kg. Background: In the rotarod test animals must keep their balance on a rotating rod.

In general, IC50 refers to the concentration needed to halve the response being measured. Low readings indicate inhibition by little substance, high ones a need for much substance. For the molecule `Cc1nc2cc(/C=C/C(=O)NO)ccc2c(=O)n1-c1ccccc1` [Compound 1c, (2E)-3-(3,4-dihydro-2-methyl-4-oxo-3-phenylquinazolin-7-yl)-N-hydroxyacrylamide], the values for the IC50 in test [1], in test [2] and in test [3] were 11.1 µM, 18.4 µM and 44.1 µM, respectively. Also, the “learning performance in rotarod test” value in test [4] is “improved learning performance”.
